# Measured values as given in PubChem BioAssay AID2462 (Broad Institute, 2010).
# The entries are a selection whose mix differs from that of the whole data set. The source made the active and inactive calls.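 Rule for the calls: active = over half of replicate activation scores above 10%, or exactly half above 10 with the replicate mean above 10; inconclusive = replicate mean below 10 yet half the replicates above 10; inactive = over half of replicates below 10.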
# Test: caspase 3/7 activation in MEF A1-2A-BIM cells, primary screen, A1 inhibitor project, cell-based, luminescence, HTS (AID 2462)
# Details: Caspase-Glo 3/7 luminescence, 3 h, active compounds read high, percent of clofoctol response, vehicle zero, concentration not given here
row,SMILES,caspase activation
1,O=[N+]([O-])c1cc([N+](=O)[O-])c(-c2cnn(-c3ccccc3)c2)c([N+](=O)[O-])c1,inactive: 0.279%
2,COc1ccccc1CNC(=O)COC(=O)C(O)(c1ccccc1)c1ccccc1,inactive: 0.83%
3,CC(C)/C=N\N=C(\N)N[N+](=O)[O-],inactive: -0.411%
4,CN(C(=O)Cc1ccc(Cl)c(Cl)c1)[C@@H]1CCCC[C@H]1N1CCCC1,inactive: 0.403%
5,Cc1nc2ccc3ccccc3c2s1.O=[N+]([O-])c1cc([N+](=O)[O-])c(O)c([N+](=O)[O-])c1,inactive: 0.476%
6,CC1(CBr)Cn2c(nc3ccccc3c2=O)S1 (configuration not stated),inactive: 1.1%
7,O=[As](O)(c1ccccc1Br)c1ccccc1Br,inactive: 0.557%
8,O=[N+]([O-])c1cc([N+](=O)[O-])c(-n2nnc3ccccc32)c([N+](=O)[O-])c1,inactive: 0.147%
9,CCOP(=O)(NC(=NC(C)c1ccccc1)NC(C)c1ccccc1)OCC (configuration not stated),inactive: -1.24%
10,O=P1(Nc2ccccn2)COc2ccccc2OC1,inactive: 0.027%
11,CCC1=CC2Cc3nc4ccc(Cl)cc4c(N)c3C(C1)C2 (configuration not stated),inactive: 0.314%
12,CCOP(=O)(Nc1ccc(C)cn1)OCC,inactive: 0.287%
13,CN(CCCl)Cc1cc(Cl)c(NC2=NCCN2)c(Cl)c1,inactive: 0.557%
14,CC(C)(C)C(=O)NC(Sc1ncccn1)C(Cl)(Cl)Cl (configuration not stated),inactive: 1.5%
15,Clc1n[nH]nc1-c1nn[nH][15n]1,inactive: -0.15%
16,COc1ccccc1OP(C)(=O)Nc1c(C)cccc1C (configuration not stated),inactive: -0.312%
17,CN1CCCCC1COC(=O)C1(O)c2ccccc2CCc2ccccc21 (configuration not stated),inactive: -0.573%
18,O=P1(Nc2ncccn2)COc2ccccc2OC1,inactive: 0.0364%
19,CCCOc1ccc(NP(C)(=O)Oc2ccc(Cl)cc2)cc1 (configuration not stated),inactive: -0.369%
20,CP(=O)(Nc1ccc(SC(F)(F)F)cc1)Oc1ccccc1 (configuration not stated),inactive: -0.134%
21,Nc1cccc([As](=O)(O)c2ccccc2)c1,inactive: -0.389%
22,O=[As](O)(c1cccs1)c1cccs1,inactive: -0.174%
23,Cc1ccc(OCC(=O)OC2CN3CCC2CC3)cc1 (configuration not stated),inactive: -0.531%
24,O=P1(Nc2ccc(Br)cn2)COc2ccccc2OC1,inactive: 0.211%
25,NS(=O)(=O)c1cccc(NC(=O)COC(=O)C(O)(c2ccccc2)c2ccccc2)c1,inactive: 0.628%
26,CC1CCC(C(C)C)C(OP(=O)(Nc2ccccn2)c2ccccc2)C1 (configuration not stated),inactive: 0.792%
27,Cc1ccc(C(=O)OC2CN3CCC2CC3)cc1 (configuration not stated),inactive: 1.91%
